{"sequences": {"note": "Chains of the proteins cited; added tags and fusions are not shown. Residues count along the entry.", "UniProt Q13224, 27-1484 G689S": "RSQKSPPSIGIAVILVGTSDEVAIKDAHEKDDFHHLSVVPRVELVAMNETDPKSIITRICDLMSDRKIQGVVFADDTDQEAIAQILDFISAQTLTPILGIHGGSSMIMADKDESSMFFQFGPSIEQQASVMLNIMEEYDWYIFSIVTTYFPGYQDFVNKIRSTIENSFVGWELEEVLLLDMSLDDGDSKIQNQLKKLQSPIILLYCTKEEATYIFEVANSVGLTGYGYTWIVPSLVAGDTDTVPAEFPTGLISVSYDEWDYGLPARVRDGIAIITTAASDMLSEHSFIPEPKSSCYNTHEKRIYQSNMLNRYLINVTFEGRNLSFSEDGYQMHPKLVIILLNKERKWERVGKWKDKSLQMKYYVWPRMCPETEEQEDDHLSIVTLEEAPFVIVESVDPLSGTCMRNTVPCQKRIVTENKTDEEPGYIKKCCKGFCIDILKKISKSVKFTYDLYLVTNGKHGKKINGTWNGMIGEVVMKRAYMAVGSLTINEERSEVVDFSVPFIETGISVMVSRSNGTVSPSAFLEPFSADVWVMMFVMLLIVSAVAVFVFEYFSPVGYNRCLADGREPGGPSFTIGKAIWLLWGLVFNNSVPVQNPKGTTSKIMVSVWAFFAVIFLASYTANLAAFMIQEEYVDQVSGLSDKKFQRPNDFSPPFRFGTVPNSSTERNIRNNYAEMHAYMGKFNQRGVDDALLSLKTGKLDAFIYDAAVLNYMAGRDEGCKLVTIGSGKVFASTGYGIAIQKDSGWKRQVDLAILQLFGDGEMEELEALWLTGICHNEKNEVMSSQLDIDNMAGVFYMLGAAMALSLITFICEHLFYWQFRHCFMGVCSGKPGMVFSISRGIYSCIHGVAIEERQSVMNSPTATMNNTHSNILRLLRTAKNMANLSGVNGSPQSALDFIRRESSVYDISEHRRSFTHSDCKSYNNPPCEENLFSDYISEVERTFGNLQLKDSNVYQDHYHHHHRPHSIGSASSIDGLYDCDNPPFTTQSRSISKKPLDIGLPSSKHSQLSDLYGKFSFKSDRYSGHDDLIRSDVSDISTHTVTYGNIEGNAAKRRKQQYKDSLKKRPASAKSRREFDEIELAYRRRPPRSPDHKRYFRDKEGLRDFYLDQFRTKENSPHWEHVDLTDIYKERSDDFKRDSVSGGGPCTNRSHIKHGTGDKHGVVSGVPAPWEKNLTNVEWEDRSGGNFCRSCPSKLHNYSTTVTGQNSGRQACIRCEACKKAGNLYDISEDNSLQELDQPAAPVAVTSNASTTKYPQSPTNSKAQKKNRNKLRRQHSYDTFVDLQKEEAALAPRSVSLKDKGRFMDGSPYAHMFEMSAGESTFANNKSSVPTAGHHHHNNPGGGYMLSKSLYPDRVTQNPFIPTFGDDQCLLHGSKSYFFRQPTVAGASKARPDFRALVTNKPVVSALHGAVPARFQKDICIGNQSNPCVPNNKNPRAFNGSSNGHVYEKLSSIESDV", "UniProt Q13224, 27-1484 G689C": "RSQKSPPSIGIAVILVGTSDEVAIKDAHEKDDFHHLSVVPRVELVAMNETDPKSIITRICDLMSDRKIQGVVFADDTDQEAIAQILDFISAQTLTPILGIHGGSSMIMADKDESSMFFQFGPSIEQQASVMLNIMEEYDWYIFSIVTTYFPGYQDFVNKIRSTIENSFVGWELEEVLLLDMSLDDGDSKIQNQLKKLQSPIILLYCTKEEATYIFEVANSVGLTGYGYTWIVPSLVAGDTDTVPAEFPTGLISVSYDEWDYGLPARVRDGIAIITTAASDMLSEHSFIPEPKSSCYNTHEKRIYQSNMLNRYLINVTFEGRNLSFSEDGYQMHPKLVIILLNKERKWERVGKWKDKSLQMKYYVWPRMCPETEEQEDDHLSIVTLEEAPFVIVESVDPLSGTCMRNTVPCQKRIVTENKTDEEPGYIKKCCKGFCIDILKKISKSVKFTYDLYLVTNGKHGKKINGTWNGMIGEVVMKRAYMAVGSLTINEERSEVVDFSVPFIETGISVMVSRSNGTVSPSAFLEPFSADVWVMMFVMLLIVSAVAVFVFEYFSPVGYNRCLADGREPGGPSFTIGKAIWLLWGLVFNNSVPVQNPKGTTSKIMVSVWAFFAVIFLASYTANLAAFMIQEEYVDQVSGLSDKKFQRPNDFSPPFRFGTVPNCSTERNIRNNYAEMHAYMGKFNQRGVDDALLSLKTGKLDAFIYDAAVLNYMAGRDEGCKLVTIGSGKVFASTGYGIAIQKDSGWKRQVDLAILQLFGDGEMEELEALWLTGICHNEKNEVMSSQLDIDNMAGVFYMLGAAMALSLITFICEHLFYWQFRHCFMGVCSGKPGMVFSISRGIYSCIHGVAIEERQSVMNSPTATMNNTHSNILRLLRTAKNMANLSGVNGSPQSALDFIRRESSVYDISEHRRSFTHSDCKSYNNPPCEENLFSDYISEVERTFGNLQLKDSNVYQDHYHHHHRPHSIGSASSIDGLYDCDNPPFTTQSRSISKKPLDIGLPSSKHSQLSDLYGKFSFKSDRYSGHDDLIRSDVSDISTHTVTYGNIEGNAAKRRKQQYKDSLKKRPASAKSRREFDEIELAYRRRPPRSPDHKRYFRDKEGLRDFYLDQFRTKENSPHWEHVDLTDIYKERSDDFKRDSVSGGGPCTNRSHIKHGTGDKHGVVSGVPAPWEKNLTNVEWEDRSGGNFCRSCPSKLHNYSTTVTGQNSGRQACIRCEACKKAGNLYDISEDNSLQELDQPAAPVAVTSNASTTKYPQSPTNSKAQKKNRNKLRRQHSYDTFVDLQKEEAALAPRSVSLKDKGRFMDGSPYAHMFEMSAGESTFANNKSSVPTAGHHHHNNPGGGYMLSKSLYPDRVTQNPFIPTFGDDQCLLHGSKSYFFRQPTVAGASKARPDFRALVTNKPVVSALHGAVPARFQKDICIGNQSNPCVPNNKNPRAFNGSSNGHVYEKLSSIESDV"}, "source": "paper PMC8260228", "about": "“Two de novo GluN2B mutations affect multiple NMDAR-functions and instigate severe pediatric encephalopathy” (eLife, 2021)", "key": {"[1]": {"test_system": "hGluN1a and hGluN2B-wt or GluN2B-G689C or G689S", "test": "Assessing potentiation by D-serine, TEVC in oocytes (all channel types together)", "settings": "100 μM D-serine; for augmentation of currents by D-serine: 5 mM glutamate"}, "[2]": {"target": "hGluN1a + GluN2B-G689S (Homo sapiens, UniProt Q05586+Q13224, G689S)", "test": "Assessing potentiation by D-serine, TEVC in oocytes", "settings": "100 μM D-serine, 1 μM glycine"}, "[3]": {"target": "hGluN1a + GluN2B-G689C (Homo sapiens, UniProt Q05586+Q13224, G689C)", "test": "Assessing potentiation by D-serine, TEVC in oocytes", "settings": "100 μM D-serine, 1 μM glycine"}, "[4]": {"test_system": "hGluN1a + hGluN2B-wt + hGluN2B-G689S", "test": "Dominant-negative experiments: glutamate dose-response of mixed channels (mRNA titration), TEVC in oocytes", "type": "cell-based, human"}, "[5]": {"test_system": "hGluN1a + hGluN2B-wt + hGluN2B-G689C", "type": "cell-based, human"}, "[6]": {"target": "T1, hGluN1a + hGluN2B-G689C (Homo sapiens, UniProt Q05586+Q13224, G689C)", "test": "Apparent open probability: MK-801 block kinetics, TEVC in oocytes", "type": "cell-based", "set-up": "expressed in transfected cells; host or cells: Xenopus laevis oocytes injected with in vitro transcribed mRNA (pCI-Neo plasmids produced by the Traynelis lab)", "settings": "1 μM MK-801 after 3 mM glutamate, 100 μM glycine"}, "[7]": {"target": "T2, hGluN1a + hGluN2B-G689S (Homo sapiens, UniProt Q05586+Q13224, G689S)", "test": "Apparent open probability: MK-801 block kinetics, TEVC in oocytes", "type": "cell-based", "set-up": "expressed in transfected cells; host or cells: Xenopus laevis oocytes injected with in vitro transcribed mRNA", "settings": "1 μM MK-801 after 3 mM glutamate, 100 μM glycine"}, "[8]": {"target": "T2, hGluN1a + hGluN2B-G689S", "test": "Mg2+ dose-response (block), TEVC in Xenopus oocytes", "type": "cell-based", "set-up": "expressed in transfected cells; host or cells: Xenopus laevis oocytes injected with in vitro transcribed mRNA", "settings": "5 mM glutamate, 100 μM glycine, −60 mV; read-out: Mg^+2 IC50 (−60 mV)", "from_the_text": "(§1) All automatically identified minis were validated by user."}, "[9]": {"target": "T1, hGluN1a + hGluN2B-G689C", "test": "Mg2+ dose-response (block), TEVC in Xenopus oocytes", "type": "cell-based", "set-up": "expressed in transfected cells; host or cells: Xenopus laevis oocytes injected with in vitro transcribed mRNA (pCI-Neo plasmids produced by the Traynelis lab)", "settings": "5 mM glutamate, 100 μM glycine, −60 mV; read-out: Mg^+2 IC50 (−60 mV)", "from_the_text": "as §1"}, "[10]": {"test_system": "hGluN1a and hGluN2B-wt or GluN2B-G689C or G689S (all channel types)", "test": "Arcaine block / competition assay, TEVC in oocytes", "type": "cell-based, human", "settings": "200 μM arcaine, 5 mM glutamate, 100 μM glycine, pH 6.5"}}, "note": "Like-named read-outs stand apart in the source and are kept apart here."}
{"smiles": "N[C@H](CO)C(=O)O", "note": "[D-serine]", "values": [{"measurement": "augmentation of currents by D-serine", "setting": "[1]; 10 μM glycine", "result": "poorly augmented"}, {"measurement": "augmentation of currents by D-serine", "setting": "[1]; 100 μM (saturating) glycine", "result": "no augmentation"}, {"measurement": "observed increases in currents by D-serine", "setting": "[1]; sub-saturating glycine", "result": "up to 60%"}, {"measurement": "response to D-serine", "setting": "[2]; 10 μM glutamate", "result": "did not show any responses"}, {"measurement": "increase of the maximal current by D-serine", "setting": "[2]; 5 mM glutamate", "result": "~ 60%"}, {"measurement": "current with D-serine as fraction of the total current (5 mM glutamate)", "setting": "[3]; 10 μM glutamate", "result": "< 15", "unit": "%"}, {"measurement": "increase in the glutamate current by D-serine", "setting": "[3]; 10 μM glutamate", "result": "~ 2 fold"}, {"measurement": "increase of the maximal current by D-serine", "setting": "[3]; 5 mM glutamate", "result": "~ 60%"}]}
{"smiles": "N[C@@H](CCC(=O)O)C(=O)O", "note": "[Glutamate, glutamate]", "values": [{"measurement": "EC50", "setting": "[4]; wtE (1:1 G689S), read-out: EC50 Two site saturation (Equation 2) KD^H", "result": 3.5, "unit": "µM"}, {"measurement": "EC50", "setting": "[4]; wtE (1:1 G689S), read-out: EC50 Two site saturation (Equation 2) KD^L (converted)", "result": 2460, "unit": "µM"}, {"measurement": "EC50", "setting": "[4]; wtE (1:1 G689S), read-out: EC50 Two site saturation (Equation 3) KD^H", "result": 3.79, "unit": "µM"}, {"measurement": "EC50", "setting": "[4]; wtE (1:1 G689S), read-out: EC50 Two site saturation (Equation 3) KD^L (converted)", "result": 1210, "unit": "µM"}, {"measurement": "EC50", "setting": "[4]; wtH (16:1 G689S), normalized to 100 μm glutamate, read-out: EC50 Two site saturation (Equation 2) KD^L (converted)", "result": 3390, "unit": "µM"}, {"measurement": "EC50", "setting": "[4]; wtH (16:1 G689S), normalized to 100 μm glutamate, read-out: EC50 Two site saturation (Equation 3) KD^H", "result": 0.481, "unit": "µM"}, {"measurement": "EC50", "setting": "[4]; wtH (16:1 G689S), normalized to 100 μm glutamate, read-out: EC50 Two site saturation (Equation 3) KD^L (converted)", "result": 1120, "unit": "µM"}, {"measurement": "EC50", "setting": "[4]; wtH (16:1 G689S), read-out: EC50 Two site saturation (Equation 2) KD^L (converted)", "result": 3460, "unit": "µM"}, {"measurement": "EC50", "setting": "[4]; wtH (16:1 G689S), read-out: EC50 Two site saturation (Equation 3) KD^L (converted)", "result": 1130, "unit": "µM"}, {"measurement": "EC50", "setting": "[5]; wtE (1:1 G689C), read-out: EC50 Two site saturation (Equation 2) KD^H", "result": 1.73, "unit": "µM"}, {"measurement": "EC50", "setting": "[5]; wtE (1:1 G689C), read-out: EC50 Two site saturation (Equation 2) KD^L (converted)", "result": 2130, "unit": "µM"}, {"measurement": "EC50", "setting": "[5]; wtE (1:1 G689C), read-out: EC50 Two site saturation (Equation 3) KD^H", "result": 0.812, "unit": "µM"}, {"measurement": "EC50", "setting": "[5]; wtE (1:1 G689C), read-out: EC50 Two site saturation (Equation 3) KD^L (converted)", "result": 778, "unit": "µM"}, {"measurement": "EC50", "setting": "[5]; wtH (16:1 G689C), normalized to 100 μm glutamate, read-out: EC50 Two site saturation (Equation 3) KD^H", "result": 0.212, "unit": "µM"}, {"measurement": "EC50", "setting": "[5]; wtH (16:1 G689C), normalized to 100 μm glutamate, read-out: EC50 Two site saturation (Equation 3) KD^L (converted)", "result": 154, "unit": "µM"}, {"measurement": "EC50", "setting": "[5]; wtH (16:1 G689C), read-out: EC50 Two site saturation (Equation 2) KD^L (converted)", "result": 366, "unit": "µM"}, {"measurement": "EC50", "setting": "[5]; wtH (16:1 G689C), read-out: EC50 Two site saturation (Equation 3) KD^H", "result": 0.212, "unit": "µM"}, {"measurement": "EC50", "setting": "[5]; wtL (1:16 G689C), read-out: EC50 Two site saturation (Equation 2) KD^H", "result": 646, "unit": "µM"}, {"measurement": "EC50", "setting": "[5]; wtL (1:16 G689C), read-out: EC50 Two site saturation (Equation 2) KD^L (converted)", "result": 5490, "unit": "µM"}, {"measurement": "EC50", "setting": "[5]; wtL (1:16 G689C), read-out: EC50 Two site saturation (Equation 3) KD^H", "result": 65, "unit": "µM"}, {"measurement": "EC50", "setting": "[5]; wtL (1:16 G689C), read-out: EC50 Two site saturation (Equation 3) KD^L (converted)", "result": 1430, "unit": "µM"}]}
{"smiles": "C[C@]12N[C@H](Cc3ccccc31)c1ccccc12", "note": "[MK-801]", "values": [{"measurement": "10–90% inhibition rate", "setting": "[6]", "result": "9604 ± 547 ms; (29)"}, {"measurement": "τoff", "setting": "[6]; mono-exponential fit", "result": "4950 ± 456 ms; (29)"}, {"measurement": "10–90% inhibition rate", "setting": "[7]", "result": "18904 ± 1375 ms; (26)"}, {"measurement": "τoff", "setting": "[7]; mono-exponential fit", "result": "7907 ± 658 ms; (26)"}]}
{"smiles": "[Mg+2]", "note": "[Mg^+2]", "values": [{"measurement": "IC50", "setting": "[8]", "result": "40 ± 2.1", "unit": "µM"}, {"measurement": "IC50", "setting": "[9]", "result": "34.5 ± 3.8", "unit": "µM"}]}
{"smiles": "NC(N)=NCCCCN=C(N)N", "note": "[arcaine, arcaine-sulfate]", "values": [{"measurement": "inhibition by arcaine", "setting": "[10]", "result": "~ 90%"}]}
